How the values were obtained:
Particle size by FEG-TEM = type: physicochemical
Method: The size, shape and surface morphology of the nanocomplexes were investigated using the field-emission gun transmission electron microscopy (FEG-TEM, JEOL, JEM-2100 F, Japan) operating at 200 kV. Samples (0.5 mg/mL) were dropped on carbon-coated copper grid, negatively stained with 1% phosphotungstic acid and air dried. For field-emission gun scanning electron microscopy (FEG-SEM, JSM-7600 F, Japan) analysis, the dried nanocomplexes were placed on a stub and coated with gold using a sputter gold coater Auto Fine Coater (JEOL, Tokyo, Japan) prior to SEM application.

[1] = Particle size and size distribution by dynamic light scattering; type: physicochemical; conditions: DLS, mean hydrodynamic diameter, Milli Q water, 25° C., three determinations
Method: (§1) The particle size and size distribution of the well-dispersed and nanocomplexes (0.5 mg/mL) diluted in Milli Q water were measured by Dynamic light scattering (DLS, 90Plus, Brookhaven Instruments Corporation, USA) at 25° C., scattering angle of 90° and using a 632 nm red laser. The surface charge of the nanocomplexes was determined by ZetaPlus Zeta-potential analyzer (Brookhaven Instruments Corporation, USA) in Milli Q water at room temperature at pH 7.0. Physical stability of the nanocomplexes when stored at 4° C. as a suspension in PBS (pH 7.4) was examined by evaluating their size distribution and zeta potential over a period of one month. CA4 or 2 ME encapsulation efficiency in the PLGA-b-PEG nano-complexes and Cet-PLGA-b-PEG nano-complexes were measured by UV spectrophotometer (Perkin Elmer, Lambda 25) and calculated using the following formula; Drug encapsulation efficiency (%)=(amount of loaded drug/amount of drug added)×100%.

[2] = Surface charge by Zeta-potential analyzer; type: physicochemical; conditions: Milli Q water, room temperature, pH 7.0
Method: as §1

Huh7 cells [3] = assay: Intracellular uptake by ultrastructural TEM; type: cell-based, human; conditions: Huh7, 50 μg/mL (combination 25+25 μg/mL), 24 hr
Source text: Untreated cells served as the control. Briefly, the treated cells were centrifuged, fixed with 2.5% glutaraldehyde, washed with PBS, followed by fixation with 1% osmium tetroxide. Cells were dehydrated in a graded series of alcohol, embedded using DER 332-732 embedding kit (EMS, USA) and polymerized for 48 hr. These resin blocks containing cells were sectioned using an ultramicrotome (Leica Ultracut UCT, Germany) and ultrathin sections (70 nm) were transferred onto 300 mesh Formvar and carbon coated copper grids (EMS, USA). The grids were then processed with uranyl acetate and lead citrate solutions to visualize the cellular ultrastructures. Internalization of the nanocomplexes was visualized under TEM (FEI TECNAI, 12 BioTwin, Netherlands) operating at 80 kV.

Huh7 cells [4] = assay: SRB cytotoxicity assay; type: cell-based, human; conditions: Huh7, 50, 75, 100, 150 and 250 μg/mL, 48 hr
Method: (§2) For cytotoxicity measurements, Hep G2 and Huh7 cells were incubated in 96-well plates (Nunc, USA) at 5×10^4 cells/well density and then treated with bare PLGA-b-PEG NP, Cet-PLEA-b-PEG NP (50-250 μg/mL), free drug CA4, its nano-complexes ([…]) and free drug 2 ME, its nano-complexes (1-15 μM) for 48 hr. […] The standard SRB assay was used to measure the cell viabilities. The absorbance was measured with a 96-well fluorescence plate reader (SPECTRAmax M2, Molecular Devices, USA) equipped with the SOFTmax Pro software (Molecular Devices), at a 550 nun wavelength. IC50 values of the free drugs and all the nanocomplexes were evaluated using OriginPro 8.0 software.

Hep G2 cells = assay: SRB cytotoxicity assay; type: cell-based, human; conditions: Hep G2, 50, 75, 100, 150 and 250 μg/mL, 48 hr
Method: as §2

normal L929 cells = assay: SRB biocompatibility assay; type: cell-based; conditions: L929, 50-250 μg/mL, 48 hr
Method: as §2

normal NIH3T3 cells = assay: SRB biocompatibility assay; type: cell-based; conditions: NIH3T3, 50-250 μg/mL, 48 hr
Method: as §2

Cet-PLGA-b-PEG NP: bare PLGA-b-PEG nano-complex surface functionalized with cetuximab
average size of the particles by FEG-TEM (Particle size by FEG-TEM): 200±20 nm | Particle size (nm ± SE) [1]: 291.9 ± 2.3 nm | Zeta potential (mV ± SE) [2]: −18.85 ± 4.51 mV | ultrastructural TEM findings, internalization and cell morphology (Huh7 cells [3]): mostly distributed in the cell cytoplasm | cytotoxicity of bare nanocomplexes (Huh7 cells [4]): non-cytotoxic | cytotoxicity of bare nanocomplexes (Hep G2 cells): non-cytotoxic | cytotoxicity of bare nanocomplexes (biocompatibility) (normal L929 cells): non-cytotoxic | cytotoxicity of bare nanocomplexes (biocompatibility) (normal NIH3T3 cells): non-cytotoxic

Source: patent US20170128592A1, “TARGETED POLYMERIC NANO-COMPLEXES AS DRUG DELIVERY SYSTEM” (Indian Institute of Technology, Bombay, priority 2015, published 2017)
